# OPERA 2.9 data: properties

Values as listed in the OPERA 2.9 repository of K. Mansouri.

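The numbers are reported measurements, compiled and curated for the OPERA QSAR suite. One number stands for a compound and property, with no spread given. Conditions of the individual experiments are not part of the data. A value may pool stereoisomers or salt forms, and the file does not say which form was measured. Some upstream entries may be estimates or bounds without being marked so.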

The melting point is given in degrees Celsius.
Boiling points are in °C, nominally at 760 mmHg.
The octanol-water partition coefficient is given as log10; larger values mean a more lipophilic compound.
Solubility in water is on a log10 molar scale (set defined at 25 °C).
Vapor pressures (log10 mmHg) refer to near room temperature, 15 to 30 °C; higher is more volatile.
Henry's law constant (air-water partitioning) is log10 of atm·m3/mol, nominally at 25 °C.
fu is the fraction unbound in human plasma, from 0 to 1.
Intrinsic clearance (human, µL/min per 10^6 hepatocytes): higher is faster turnover, and 0 stands for none detected.
Cells with "–" have no entry in this list.

SMILES,name,mp (°C),bp (°C),log Kow,log S (log10 mol/L),vapor pressure (log10 mmHg),log H (log10 atm·m3/mol),fu,Clint (µL/min/10^6 cells)
C(=Cc1ccccc1)C=NCCCCCCN=CC=Cc1ccccc1,"N,N'-Dicinnamylidene-1,6-hexanediamine",90.37,–,–,-3.894,–,–,–,–
CC(C)CN(C[C@@H](O)[C@@H](N)Cc1ccccc1)S(=O)(=O)c1ccc(N)cc1,–,138,–,–,-3.929,-6.201,–,–,–
CCC(=O)OCC(C)(C)OC(C)C1CCCC(C)(C)C1 (centres undefined),–,-22.15,286,4.68,-4.787,-0.823,–,–,–
CC[C@H]1OC(=O)C[C@@H](O)[C@H](C)[C@@H](O[C@@H]2O[C@H](C)[C@@H](O[C@H]3C[C@@](C)(O)[C@@H](O)[C@H](C)O3)[C@H](N(C)C)[C@H]2O)[C@@H](CC=O)C[C@@H](C)C(=O)C=CC(C)=C[C@@H]1CO[C@@H]1O[C@H](C)[C@@H](O)[C@@H](OC)[C@H]1OC,Tylosin,130,–,–,-3.76,–,–,–,–
CCCCOCCOCCOCCOCCO,"3,6,9,12-Tetraoxahexadecan-1-ol",-29,–,0.473,–,–,–,–,–
C=CC(C)CCCC(C)(C)OC=O (centres undefined),"7-Octen-2-ol, 2,6-dimethyl-, 2-formate",–,–,3.55,-3.712,-0.436,–,–,–
CCOc1ccc(-c2ccc(C3CCC(CC)CC3)cc2)c(F)c1F (centres undefined),–,77.6,414,–,-6.847,-7.193,–,–,–
CCOc1ccccc1OCC,"1,2-Diethoxybenzene",–,–,–,-2.41,-1.19,–,–,–
C=CCn1c(=O)n(CC=C)c(=O)n(CC=C)c1=O,Triallyl isocyanurate,–,–,1.64,–,-5.894,–,–,–
COc1cc(NC(C)CCCN)c2ncccc2c1 (centres undefined),Primaquine,–,177,2.1,-3.663,–,–,0.284,–
C=C(C)C(=O)OCCC[Si](O[Si](C)(C)C)(O[Si](C)(C)C)O[Si](C)(C)C,–,–,292.7,–,-5.585,-3.215,–,–,–
CCC(=C(c1ccc(O)cc1)c1ccc(OCCN(C)C)cc1)c1ccccc1,4-hydroxytamoxifen,–,–,–,–,–,–,0.0153,16
COC(=O)CCCC(=O)OC,Dimethyl glutarate,–,–,–,–,–,–,0.6989,46.3
CCCCCCOC(=O)c1ccccc1C(=O)c1ccc(N(CC)CC)cc1O,Diethylamino hydroxybenzoyl hexyl benzoate,54,–,–,–,-7.663,–,–,–
Cc1ccc(N)cc1O,5-amino-2-methylphenol,–,–,–,–,–,–,0.604,16
O=S(=O)(c1ccccc1)N(SC(Cl)(Cl)Cl)c1ccccc1,"Benzenesulfonamide, N-phenyl-N-[(trichloromethyl)thio]-",110,–,4.73,–,-6.973,–,–,–
CC1=C(C#N)C(C)(C)CC=C1,"1,3-Cyclohexadiene-1-carbonitrile, 2,6,6-trimethyl-",-20.4,–,–,–,-1.028,–,–,–
CNS(=O)(=O)c1cc(OC)c(N)cc1C,"Benzenesulfonamide, 4-amino-5-methoxy-N,2-dimethyl-",135,–,–,-2.577,–,–,–,–
CNC(=O)/C(=N/OC)c1ccccc1COc1cc(C)ccc1C,Dimoxystrobin,–,–,–,-4.879,-10.35,–,–,–
Cl.N=C1C=CC(=C(c2ccc(N)cc2)c2ccc(N)cc2)C=C1,C.i. basic red 9 monohydrochloride,–,–,–,–,–,–,0.235,3.23
Fc1ccc(C(F)(F)F)cc1Cl,"Benzene, 2-chloro-1-fluoro-4-(trifluoromethyl)-",–,–,3.88,-3.672,–,–,–,–
CCC[C@H]1CC[C@H](C2CC=C(c3ccc(OCC)c(F)c3F)CC2)CC1 (some centres not stated),–,71,398,–,-6.957,-7.714,–,–,–
CCC/C=C/C=O,(2E)-2-Hexenal,-55.6,–,–,-1.271,0.847,–,–,–
CCCCCCC1CCCC1=O (centres undefined),2-Hexylcyclopentanone,–,270.9,3.9,-3.452,-1.803,–,–,–
CCCCCCC(C)OC(=O)COc1nc(F)c(Cl)c(N)c1Cl (centres undefined),Fluroxypyr-meptyl,–,–,–,–,–,-6.574,–,9.92
CCCC(=O)OCn1cnc2c(cnn2COC(=O)CCC)c1=O,–,–,–,1.82,-3.828,–,–,–,–
CC/C=C\CCOC(=O)c1ccccc1O,(3Z)-Hex-3-en-1-yl salicylate,–,–,4.8,-4.644,-2.949,–,–,–
CCC(C)(O)CCC=C(C)C (centres undefined),"3,7-Dimethyloct-6-en-3-ol",–,–,2.9,-2.09,-1.28,–,–,–
CCCCCCCCC=CCCCCCCCC(=O)OC(C)C,–,–,–,5.69,-6.335,–,–,–,–

Extract of 2 entries:

{"smiles": "CCCCCCOC(=O)c1ccccc1C(=O)c1ccc(N(CC)CC)cc1O", "name": "Diethylamino hydroxybenzoyl hexyl benzoate", "mp (°C)": "54", "vapor pressure (log10 mmHg)": "-7.663"}
{"smiles": "C=C(C)C(=O)OCCC[Si](O[Si](C)(C)C)(O[Si](C)(C)C)O[Si](C)(C)C", "bp (°C)": "292.7", "log S (log10 mol/L)": "-5.585", "vapor pressure (log10 mmHg)": "-3.215"}